Only a part is listed here, and it is no random draw. Calls of active or inactive are those of the source.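 How the source made its calls: active means activation above the mean of all tested compounds plus 3 SD (cut at about 21% in these data); inactive means the rest.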

Protein sequences, listed by entry. Tags and fused reporters are not part of them.
UniProt P42574, whole entry D9A/D28A/D175A: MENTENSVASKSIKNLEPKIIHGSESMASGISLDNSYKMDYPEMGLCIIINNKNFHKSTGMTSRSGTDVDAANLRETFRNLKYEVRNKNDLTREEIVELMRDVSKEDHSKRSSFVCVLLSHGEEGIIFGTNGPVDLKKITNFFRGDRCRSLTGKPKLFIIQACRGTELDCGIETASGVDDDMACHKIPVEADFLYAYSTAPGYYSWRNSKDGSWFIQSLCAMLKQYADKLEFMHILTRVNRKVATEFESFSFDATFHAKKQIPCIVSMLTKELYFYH

In PubChem BioAssay AID463141 (The Scripps Research Institute Molecular Screening Center, 2010) one finds activation data, which are given here for 63 compounds.

This experiment addresses Caspase-3 (Homo sapiens) (UniProt P42574). Briefly: procaspase-3 enzyme activation – biochemical, absorbance, PC-3 D3A mutant, single concentration, primary screen (AID 463141).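 Further: 0% = DMSO alone and 100% = DMSO wells spiked with extra 5 µM PC-3 D3A.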 The note with it: recombinant procaspase-3 D3A, Ac-DEVD-pNA absorbance 405 nm; at 8.5 µM; stronger effect = higher value.
Regarding `O=C(NCC1(N2CCCCC2)CCCCC1)c1cccc(C(F)(F)F)c1`, the activation is inactive: 10%.
With `O=C(NCC1(N2CCOCC2)CCCCC1)c1cc(=O)[nH]c2ccccc12` the figure was inactive: -3.32%; with `COc1cc(C(=O)NCC2(N3CCCCC3)CCCCC2)ccc1OC(F)F`, inactive: -1.57%; with `COc1ccc(NC2CCN(C(=O)OC(C)(C)C)CC2)cc1`, inactive: -1.31%.
As for `CN1CCN(CCOC(=O)C(O)(c2ccccc2)c2ccccc2)CC1`, the activation was inactive: -7.34%.
On to `O=C(NCC1(N2CCCCC2)CCCCC1)c1ccc(OC(F)F)cc1`, for which the activation was inactive: 2.44%.
With `CCN1CCC(Nc2ccc(Cl)cc2)CC1` the figure was inactive: 6%.
For the compound `N#CC1(Nc2ccccc2)CCN(CCc2ccccc2)CC1`, the activation is inactive: 5.13%.
`O=C(NCC1(N2CCCCC2)CCCCC1)c1cccc([N+](=O)[O-])c1`: the activation was inactive: 0.85%.
Take `CN1CCC(Nc2cccc(F)c2)CC1`: the activation was inactive: 7.71%.
On to `O=C(NCC1(N2CCCCC2)CCCCC1)c1cncc(Br)c1`, for which the activation was inactive: 7.71%.
With `CC(C)c1ccc(NC2CCN(C(=O)OC(C)(C)C)CC2)cc1` the figure was inactive: 7.71%; with `COc1ccc(CN(CCCl)CCCl)cc1Cl`, inactive: 12.8%.
Consider `CN(C)c1cccc(C(=O)NCC2(N3CCCCC3)CCCCC2)c1`, for which the activation is inactive: 7.77%.
For the compound `COc1cc(OC)c(C(=O)NCC2(N(C)C)CCCCC2)cc1OC`, the activation is inactive: 1.77%.
In the case of `O=C(NCC1(N2CCOCC2)CCCCC1)c1cc(F)c(F)cc1Cl`, the activation is inactive: 7.18%.
Take `O=C(NCC1(N2CCCCC2)CCCCC1)c1ccc(Cl)nc1`: the activation was inactive: -3.04%.
`Cc1cc(C)cc(N(C(=O)c2ccccc2)C2CCN(C(=O)OC(C)(C)C)CC2)c1`: the activation is inactive: -1.71%.
With `O=C(NCC1(N2CCOCC2)CCCCC1)c1cc2ccccc2o1` the figure was inactive: 7.2%.
Consider `N#CC1(Nc2ccccc2)CCN(Cc2ccccc2)CC1`, for which the activation was inactive: -0.69%.
Regarding `O=C(NCC1(N2CCCCC2)CCCCC1)c1ccc(Cl)s1`, the activation is inactive: 11.5%.
Regarding `O=C(OC1CN2CCC1CC2)C1c2ccccc2Oc2ccccc21` (stereo not drawn), the activation is inactive: 3.85%.
Turning to `COc1ccc(Cl)cc1C(=O)NCC1(N2CCOCC2)CCCCC1`, the activation was inactive: 7.87%.
In the case of `CCOC(=O)N1CCC(Nc2ccc(OC)cc2)CC1`, the activation was inactive: 0.37%.
With `COc1ccc(C(=O)NCC2(N3CCCCC3)CCCCC2)cc1`, the activation was inactive: 10.3%.
Next, `COc1ccc(C(=O)NCC2(N3CCCCC3)CCCCC2)c(OC)c1OC`: inactive: 1.12%; `CC(C)(C)OC(=O)N1CCC(N(C(=O)c2ccccc2)c2ccc(F)cc2)CC1`: inactive: 5.34%.
On to `O=C(NCC1(N2CCCCC2)CCCCC1)c1ccc(=O)[nH]c1`, for which the activation is inactive: -0.96%.
Take `O=C(NCC1(N2CCCCC2)CCCCC1)c1cccs1`: the activation is inactive: 4.81%.
Regarding `CSc1ccccc1C(=O)NCC1(N2CCCCC2)CCCCC1`, the activation was inactive: 0.99%.
For `CCOC(=O)N1CCC(Nc2cccc(C)c2)CC1`, the activation is inactive: 10.8%.
Regarding `Cc1ccc(OCC(C)C)c(CN(CCCl)CCCl)c1`, the activation was inactive: -4.73%.
Next, `CCOc1ccc(C)cc1CN(CCCl)CCCl`: inactive: 4.52%.
Turning to `O=C(NCC1(N2CCCCC2)CCCCC1)c1ccc(F)cc1`, the activation was inactive: 0.49%.
As for `COc1ccc(NC2CCN(CCc3ccccc3)CC2)c(OC)c1`, the activation is inactive: -5.45%.
Consider `CCN1CCC(Nc2cccc(F)c2)CC1`, for which the activation is inactive: 2.97%.
On to `O=C(NCC1(N2CCCCC2)CCCCC1)c1ccco1`, for which the activation is inactive: -7.23%.
With `CN(C)c1ccc(C(=O)NCC2(N3CCCCC3)CCCCC2)cc1` the figure was inactive: 3.05%; with `COc1cc(OC)cc(C(=O)NCC2(N3CCCCC3)CCCCC2)c1`, inactive: -2.65%.
Take `Cc1ccc(C(=O)NCC2(N3CCCCC3)CCCCC2)o1`: the activation was inactive: -0.74%.
Next, `Fc1ccccc1NC1CCN(Cc2ccccc2)CC1`: inactive: 6.03%; `COc1cccc(C(=O)N(c2cc(C)cc(C)c2)C2CCN(C(=O)OC(C)(C)C)CC2)c1`: inactive: 14%.
For `COc1cc(OC)cc(C(=O)NCC2(N3CCOCC3)CCCCC2)c1`, the activation was inactive: 0.81%.
Next, `CCC(CO)(C(=O)OC1CN2CCC1CC2)c1ccccc1` (stereo not drawn): inactive: 6.78%; `CN1CCC(Nc2ccc(Cl)cc2)CC1`: inactive: 7.11%; `CCCOc1ccc(C)cc1CN(CCCl)CCCl`: inactive: 8.74%.
For `CCOc1ncccc1C(=O)NCC1(N2CCOCC2)CCCCC1`, the activation is inactive: -11.9%.
As to `CN1CCC(Nc2ccc(F)c(Cl)c2)CC1`, the activation was inactive: 3.92%.
In the case of `CC(C)(C)OC(=O)N1CCC(Nc2ccccc2)CC1`, the activation is inactive: 1.88%.
Take `O=C(O)C1(Nc2ccccc2)CCN(Cc2ccccc2)CC1`: the activation is inactive: -2.34%.
Next, `CCCOc1ccc(C(=O)NCC2(N(C)C)CCCCC2)cc1`: inactive: 1.14%.
Next, `CCOC(=O)N1CCC(Nc2ccc(C)cc2)CC1`: inactive: 8.17%; `N/C(=N\O)c1c(N)no[n+]1[O-]`: inactive: -4.81%; `CCc1cc(C(=O)NCC2(N3CCCCC3)CCCCC2)sc1C`: inactive: 7.64%.
With `O=C(OC1CN2CCC1CC2)C1c2ccccc2C=Cc2ccccc21` (stereo not drawn) the figure was inactive: -5.53%; with `COc1cc(C(=O)NCC2(N3CCOCC3)CCCCC2)cc(OC)c1C`, inactive: 8.98%.
In the case of `O=C(NCC1(N2CCOCC2)CCCCC1)c1cc(Br)ccc1Cl`, the activation is inactive: -5.65%.
For the compound `COc1ccc(C(=O)NCC2(N3CCOCC3)CCCCC2)cc1OC`, the activation was inactive: -4.81%.
Next, `CN(C)C1(CNC(=O)c2cccc(C#N)c2)CCCCC1`: inactive: -3%; `c1ccc(CN2CCC(Nc3ccccc3)CC2)cc1`: inactive: 5.45%.
Next, `CCCN1CCC(Nc2cc(OC)cc(OC)c2)CC1`: inactive: 2.19%.
Next, `N#Cc1ccc(C(=O)NCC2(N3CCCCC3)CCCCC2)cc1`: inactive: 3.08%; `CC(C)(C)OC(=O)N1CCC(N(C(=O)c2ccccc2)c2ccc(Cl)cc2)CC1`: inactive: 10.6%.
